Drawing on patent US20220288223, this text covers Kcat/Km for two substances.

The subject of series [1] is RACPP with substrate Nle-TPRSFL.
Series [2] has as its system RACPP with substrate TGRAAA.
The test system of series [3] is RACPP with substrate PLGC(me)AG.
In series [4] the test system is RACPP with substrate YGRAAA.

With Thrombin, in series [1], the Kcat/Km was determined as 670000.
Take uPA: the Kcat/Km was 5580 in series [2], 1440 in series [3] and 834 in series [4].
